A short description of data set [1]: Pharmacokinetics after IV administration, plasma levels by MCR-binding bioassay. It is filed as in vivo. Particulars: rats, 100 µg/kg, FIG. 1.
Test in data set [2]: as above
It is filed as in vivo. The settings on record: cynomolgus monkeys, 50 µg/kg, FIG. 2.

The nature of data set [3]: Solubility of the peptide. It is filed as physicochemical. Particulars: 0.9% saline; acetate salt form. How it is done:
For synthesis, an Fmoc-Lys(R^3)-p-alkoxybenzyl alcohol resin was transferred to a solid phase peptide synthesizer reactor with a mechanical stirrer. The R^3 group, such as 1-(1'-adamantyl)-1-methyl-ethoxycarbonyl (Adpoc), allyloxycarbonyl (Aloc) or 4-methyltrityl (Mtt), was removed and the next Fmoc-protected amino acid (Fmoc-Trp(Boc)-OH) was added to the resin through standard coupling procedures. The Fmoc protective group was removed and the remaining amino acids added individually in the correct sequence, by repeating coupling and deprotection procedures until the amino acid sequence was completed. After completion of coupling with the last Fmoc-amino acid derivative, Fmoc-Nle-OH, and cleavage of the Fmoc protective group, the exposed terminal amino group was acetylated with acetic anhydride and pyridine in N,N-dimethylformamide (DMF). The peptide-resin was dried and the Lys and Asp protective groups cleaved. […]

The nature of data set [4]: Pre-formulation stability study for nasal delivery. The settings on record: 825 mg/mL, twelve weeks, storage at 40° C. In kind it is physicochemical. How it is done: A series of pre-formulation studies for nasal delivery were conducted.
Data set [5] concerns Sprague Dawley rats. The data set can be described thus: Observation for adverse side effects after intravenous dosing. Particulars: 0.5 to 25 µg/kg, one-half hour observation.
The next data set deals with MC2-R. The settings on record: read-out: RELATIVE BINDING (KI) MC2-R; competitive inhibition; Y1 cells as receptor source.
The target of a further data set is MC4-R. The settings on record: read-out: RELATIVE BINDING (KI) MC4-R; competitive inhibition; transfected HEK 293 cells.
In data set [6] the test system is Sprague Dawley rats. Particulars: stated as known; cited from earlier work.
Data set [7] relates to men with psychogenic erectile dysfunction. Particulars: subcutaneous, 0.025 to 0.157 mg/kg body weight; cited from earlier work.
Data set [8] relates to Sprague Dawley rats. Briefly: Induced penile erection by intranasal administration (dosing study). The settings on record: nasal administration.

pKi: −log10 of the molar value.

Consider “Ac-Nle-cyclo(-Asp-His-D-Phe-Arg-Trp-Lys)-OH [Compound 1]”, for which the pharmacokinetic profile entry in data set [1] and in [2] was “bi-phasic” throughout. Further, the solubility entry in data set [3] is reported as “soluble in 0.9% saline”. The stability entry in data set [4] was “shows the stability of the peptide”. The adverse side effects entry in the data set with Sprague Dawley rats [5] is listed as “No adverse side effects were observed”.

As for Melanotan-II, the pKi on MC2-R was less than 6.00; on MC4-R, 8.99. The “doses inducing side effects (excessive grooming, yawning, vacuous chewing, hypoactivity, heaving)” value with Sprague Dawley rats [6] is given as not below 300 µg/kg body weight. Besides, the transient side effects result in data set [7] is “nausea, stretching and yawning, and decreased appetite”. Moreover, in the data set with Sprague Dawley rats [8], the adverse side effects entry was “adverse side effects were seen with administration of higher doses”.
